Values of other authors, collected in patent US11452728B2, “7-aminocephalosporanic acid derivative as inhibitor of IL15 and IL-2 activity” (Warszawski Uniwersytet Medyczny, priority 2013, dated 2022).

Conditions: in vivo; cited from earlier work

SMILES: Cc1nnc(SCC2=C(C(=O)O)N3C(=O)[C@@H](NC(=O)Cn4cnnn4)[C@H]3SC2)s1 [Cefazolin]
- distribution into pleural cavity, peritoneal cavity, synovial fluid, bile, bones, urinary tract: good bioavailability
- metabolism: not metabolized
